Measured values taken from ChEMBL document CHEMBL1124862 (J Med Chem, 1990).
pIC50: −log10 of the molar value.

Sequences of proteins named here, by UniProt entry; tags and fusion partners are left off.
UniProt P19327, whole entry: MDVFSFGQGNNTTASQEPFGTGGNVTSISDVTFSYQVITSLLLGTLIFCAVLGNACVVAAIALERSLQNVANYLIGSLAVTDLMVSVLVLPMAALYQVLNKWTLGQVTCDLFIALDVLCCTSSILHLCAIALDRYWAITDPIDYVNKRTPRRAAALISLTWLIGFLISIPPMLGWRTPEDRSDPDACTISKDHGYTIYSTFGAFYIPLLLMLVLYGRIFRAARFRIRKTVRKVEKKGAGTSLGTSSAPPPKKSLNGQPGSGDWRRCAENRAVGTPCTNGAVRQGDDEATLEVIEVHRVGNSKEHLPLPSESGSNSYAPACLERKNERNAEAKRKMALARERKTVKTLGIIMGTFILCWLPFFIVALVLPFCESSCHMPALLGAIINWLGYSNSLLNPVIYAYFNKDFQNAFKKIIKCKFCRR

Target: 5-hydroxytryptamine receptor 1A (Rattus norvegicus, UniProt P19327)
Assay: Displacement of [3H]8-OH-DPAT from rat cortex 5-hydroxytryptamine 1A receptor
Outline: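 Competition binding in rat cortex membranes, using the radioligand named in each line at a concentration of approximately its K_D.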

## COc1ccc2[nH]cc(C3=CCNCC3)c2c1 [RU-24969]
  pIC50: 7.85
